Results taken from US5173297A, “Bacteriocin from Lactococcus lactis subspecies lactis” (Quest International Flavors & Food Ingredients Company …, priority 1991, dated 1992).

How the values were obtained:
[1] = system: Trypsin; assay: Effect of treatment with trypsin on antibacterial activity; format: physicochemical; settings: for Titer after trypsin treatment: 20 hour at 40° C., 3200-6400 AU/ml bacteriocin
Procedure: (§1) Trypsin and chymotrypsin susceptibility of crude and purified bacteriocin was explored. Enzymes were obtained from Sigma (St. Louis, Mo.) and were stored lyophilized at -20° C. until use. Enzymatic reactions were done in a 0.1M ammonium bicarbonate buffer, pH 7.8, containing 0.1 mM calcium chloride (Deutcher, M. P., Meth. Enzymol. 182:611-612 (1990)). Susceptibility was defined as inability of the bacteriocin to inhibit the growth of a lawn of indicator bacteria when applied to the surface of an agar plate containing the bacteria at a rate of 16 units activity in a volume of 5 μl.
(§2) Titer <200 is deemed sensitive to protease action; titer >200 is resistant.
Trypsin digestion was done by 20 hour incubation at 40° C. with 3200-6400 AU/ml bacteriocin concentration.

[2] = target: T1, Chymotrypsin (Bos taurus, UniProt P00766); assay: Effect of treatment with alpha-chymotrypsin on antibacterial activity; format: physicochemical; settings: for Titer after chymotrypsin treatment: 2 hour at 40° C., 3200-6400 AU/ml bacteriocin
T1 construct: purchased Sigma (St. Louis, Mo.)
Procedure: as §1, §2
Chymotrypsin digestion was done by 2 hour incubation at 40° C. with 3200-6400 AU/ml bacteriocin concentration.

nisin [Nisin Pure]
sensitive (S) / resistant (R) to protease action ([1]; Trypsin 1 ng/ml): R (titer >200 is resistant) | Titer after trypsin treatment ([1]; Trypsin 1 ng/ml): > 200 | sensitive (S) / resistant (R) to protease action ([1]; Trypsin 10 ng/ml): S (Titer <200 is deemed sensitive to protease action) | Titer after trypsin treatment ([1]; Trypsin 10 ng/ml): < 200 | Titer after trypsin treatment ([1]; Trypsin 100 ng/ml): < 200 | Titer after trypsin treatment ([1]; Trypsin 1 μg/ml): < 200 | Titer after trypsin treatment ([1]; Trypsin 10 μg/ml): < 200 | Titer after trypsin treatment ([1]; Trypsin 100 μg/ml): < 200 | sensitive (S) / resistant (R) to protease action ([1]; Trypsin 1 mg/ml): S (Titer <200 is deemed sensitive to protease action) | Titer after trypsin treatment ([1]; Trypsin 1 mg/ml): < 200 | sensitive (S) / resistant (R) to protease action ([2]; Chymotrypsin 1 μg/ml): R (titer >200 is resistant) | Titer after chymotrypsin treatment ([2]; Chymotrypsin 1 μg/ml): > 200 | Titer after chymotrypsin treatment ([2]; Chymotrypsin 10 μg/ml): > 200 | Titer after chymotrypsin treatment ([2]; Chymotrypsin 100 μg/ml): > 200 | sensitive (S) / resistant (R) to protease action ([2]; Chymotrypsin 1 mg/ml): R (titer >200 is resistant) | Titer after chymotrypsin treatment ([2]; Chymotrypsin 1 mg/ml): > 200
